## Yeast mating assay 1: variants of the scFv Ab-14

Values reported by Engelhart et al. 2022, doi:10.1038/s41597-022-01779-4 (FLAb copy).

Binding partner: SARS-CoV-2 spike HR2 peptide, sequence PDVDLGDISGINAS.

The variants keep the light chain, the linker and the frameworks of Ab-14 (scFv order VH, a (GGGGS)3 linker, VL).
VH: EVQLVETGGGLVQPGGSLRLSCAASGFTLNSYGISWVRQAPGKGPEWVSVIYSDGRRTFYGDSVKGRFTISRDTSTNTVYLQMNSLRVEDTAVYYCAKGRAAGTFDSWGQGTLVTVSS
VL: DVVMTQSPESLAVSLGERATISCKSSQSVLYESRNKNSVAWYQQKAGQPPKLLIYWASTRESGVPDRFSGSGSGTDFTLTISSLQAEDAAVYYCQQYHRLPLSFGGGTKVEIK

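Phage display of a naive human antibody library on the peptide gave the parent. The library (AAYL49) carries one to three amino acid substitutions per variant, with no insertions or deletions. In AlphaSeq, yeast of one mating type display the scFv and yeast of the other type display the target. Pairs that bind mate more often; barcode pairs of the diploids are counted by sequencing. Each replicate has its own calibration line, from reference interactions of the BCL2 family. Mating was done three times.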

Variants are written as CDR1, CDR2 and CDR3 of the heavy chain (limits as in the source). Parent: GFTLNSYGIS, VIYSDGRRTFYGDSVK, GRAAGTFDS. The read-out is the apparent dissociation constant on a log10 scale (nM): the lower, the stronger. Averages over replicates are reported, and they cover detected replicates only. A pair that was not seen in that replicate is written "nd"; this usually means weak binding, but a binder can also be missed. Background: pairings of library AAYL49 with three empty control strains gave a value in 15% of cases (median 4.06, 5th percentile 2.83). Values in that range, when seen in few replicates, are hard to tell from nonspecific mating. Also given: how often the same scFv was detected with the empty control strains, with their mean in brackets.

CDR-H1 | CDR-H2 | CDR-H3 | log10 Kd, replicates | mean log10 Kd (nM) | empty controls
GFTDNSYGIS | VIYSDGRRTFYMDSVK | GRAAITFDS | nd / nd / nd | nd | 1/9 (2.94)
GFTLNSYGIE | VIYIDGRRTFYGDSVK | GRAAGFFDS | nd / nd / nd | nd | 1/9 (3.06)
GFTLNVYGIQ | VIYSDGRRSFYGDSVK | GRAAGTFDS | nd / nd / nd | nd | 0/9
GFTLGSYGIS | VIYSDGRRTFYGDWVK | GRAAGTFFS | nd / 5.34 / 4.88 | 5.11 | 3/9 (4.27)
GFTLSSYGIS | VIYSDGRRTFYGNSVK | GRAAGTFDS | 3.07 / 3.01 / 2.87 | 2.98 | 0/9
GFTLNSKGIS | VIYSDGRRTFYGESVK | GRAAGTFDW | nd / nd / nd | nd | 0/9
GFTLNSRGIS | VIYSDGIRTFYGDSVK | GRAIGTFDS | nd / nd / nd | nd | 0/9
GFTLNSYGIS | FIYSDGRRTFYGDSVK | TRGAGTFDS | nd / nd / nd | nd | 1/9 (3.76)
GFTLNSYGIL | VIYSDGRRTTYGDSVK | GRVAGTFDS | nd / nd / nd | nd | 1/9 (3.84)
GFTLHSYGIS | VIYSDGRTTFYGDSVK | GFAAGTFDS | nd / nd / nd | nd | 0/9
GFKLFSYGIS | VIYSDGRRTFYGDSVK | GRAAGTFDS | 3.11 / 2.38 / 2.91 | 2.80 | 1/9 (3.55)
GFKLNSYGIS | VIYSDGRRTFYGDSQK | GRAAGTADS | nd / nd / nd | nd | 0/9
GFTLNSYIIS | VIYSDGRRTFYGDSVK | GRAAGTFDS | nd / nd / nd | nd | 1/9 (3.44)
GFTLNSYGIS | VIYSDGRRTFACRSVK | GRAAGTFDS | nd / nd / 4.93 | 4.93 | 4/9 (3.52)
GFLLNSYGIS | VIYSDGRRTFYGDSVK | GRRAGTFMS | nd / nd / nd | nd | 0/9
GFTLNSYGIS | VIYSDGRRTCYGDSVK | GRAAPTFGS | nd / nd / nd | nd | 0/9
GFTLNSYGIS | VIYEDWIRTFYGDSVK | GRAAGTFDS | nd / nd / nd | nd | 0/9
GFTLNSYHIS | VIYSDGERTAYGDSVK | GRAAGTFDS | 3.90 / nd / nd | 3.90 | 2/9 (2.80)
GFTLNTYGID | VISSDGRRTFYGDSVK | GRAAGTFDS | 4.43 / 4.63 / nd | 4.53 | 8/9 (4.18)
GFTLNSYGIS | VIYSDGRMYNYGDSVK | GRAAGTFDS | nd / nd / 4.65 | 4.65 | 1/9 (5.39)
GFTLNMYGIS | VIYSDGRRSFYGDSVK | GRAHGTFDS | 3.33 / 3.00 / 3.48 | 3.27 | 0/9
GFTLNSYGIS | VIYSDGRRTFYGDSVY | GNAAGTFFS | nd / nd / 4.86 | 4.86 | 3/9 (4.59)
GFTLNSYGKS | VIYSDGRRTFYGDRVK | GRAAGTFDS | 3.64 / 4.32 / 5.46 | 4.47 | 4/9 (4.22)
GFTLNPYGIS | VGYSDGRRTFYGDSVK | GRAAGTFDS | nd / nd / nd | nd | 1/9 (4.04)
GFTLNSYGIS | VIYSDGMRYFYPDSVK | GRAAGTFDS | nd / 3.92 / 4.28 | 4.10 | 2/9 (4.77)
GFTLNSFGIS | VIYSDGRRTFYGHSVK | GRAAGTWDS | nd / nd / nd | nd | 1/9 (3.81)
GFTLNSYGIT | VIYSDGFRTFYGDSVK | GFAAGTFDS | 0.50 / 0.70 / 0.59 | 0.60 | 4/9 (5.31)
IFTINSYGIS | VIYSDGRRTFYGDSVK | GRFAGTFDS | nd / nd / 3.89 | 3.89 | 0/9
GFTLNSYEIS | VIYSDGRRTIYGDSVK | GRAAGTFDS | nd / nd / nd | nd | 0/9
GFTLNSYGIS | VIYSDGRRWFYGDHVK | GRAAITFDS | 5.16 / 4.10 / nd | 4.63 | 1/9 (5.41)
GFTLNSYGIQ | VIYSDGRRTFYGDSVK | GRAHNTFDS | nd / nd / nd | nd | 0/9
GFTLNSYGIS | VIYNDGERTFYGDSVK | GRAAGGFDS | nd / nd / nd | nd | 0/9
GFTLNSYGLS | VIYSNGRRTFYGDSVK | GRAAGTFDN | nd / nd / 5.26 | 5.26 | 6/9 (3.99)
GITLNSYGGS | VIYSDGRRTFYGNSVK | GRAAGTFDS | nd / nd / 3.07 | 3.07 | 1/9 (4.65)
GFTLNSYGIS | VWYSDGRRTMYGDSVK | GRAAGTFDT | nd / nd / nd | nd | 0/9
GFTLNSYGIS | VNYSDGRRTFYGDSVK | GRCAGTFDS | nd / nd / nd | nd | 3/9 (3.99)
GFTVNSYGIS | VIYSDGERTFYGDSVK | GRAAHTFDS | nd / nd / 5.00 | 5.00 | 1/9 (5.24)

The opening 6 entries, copied out:

CDR-H1,CDR-H2,CDR-H3,"log10 Kd, replicates",mean log10 Kd (nM),empty controls
GFTDNSYGIS,VIYSDGRRTFYMDSVK,GRAAITFDS,nd / nd / nd,nd,1/9 (2.94)
GFTLNSYGIE,VIYIDGRRTFYGDSVK,GRAAGFFDS,nd / nd / nd,nd,1/9 (3.06)
GFTLNVYGIQ,VIYSDGRRSFYGDSVK,GRAAGTFDS,nd / nd / nd,nd,0/9
GFTLGSYGIS,VIYSDGRRTFYGDWVK,GRAAGTFFS,nd / 5.34 / 4.88,5.11,3/9 (4.27)
GFTLSSYGIS,VIYSDGRRTFYGNSVK,GRAAGTFDS,3.07 / 3.01 / 2.87,2.98,0/9
GFTLNSKGIS,VIYSDGRRTFYGESVK,GRAAGTFDW,nd / nd / nd,nd,0/9